Assay [1] addresses T1, PBP3 (E. coli) (Escherichia coli, UniProt P0AD68). Nature of the assay: Fluorescence polarisation competition study using BCY12820 as tracer. In kind it is binding. Particulars: competition with BCY12820 as tracer. The method, then: Fluorescence polarisation competition was carried out using a BODIPY labelled Penicillin tracer and unlabelled peptides, for competition to an unmodified PBP protein. Polarisation was measured using a PHERAstar FS by BMG Labtech fitted with a FP 485 520 520 optic module.
Fluorescent BODIPY labelled penicillin at 5 mM in DMSO were diluted to 6.25 nM in binding buffer (10 mM HEPES, pH8, 300 mM NaCl, 2% glycerol). Unmodified PBP were diluted to 2 μM in binding buffer. A two-fold dilution series of unmodified peptide was prepared across 12 wells in binding buffer, with the highest final well concentration being 60 μM, and the lowest concentration being […]. 5 μl of the unmodified peptide dilution series or Carbenicillin were added to 12 wells of a 384-Well NBS™ Low Volume Microplate (Fisher Scientific). 10 μl diluted fluorescent BODIPY labelled penicillin (6.25 nM) were then added to the 12 wells containing the unmodified peptide dilutions. 10 μl of unmodified PBP (2 μM) were then added to the 12 wells containing unmodified peptide and fluorescent BODIPY labelled penicillin to bring the total volume to 25 μl, and the final concentration of Fluorescent BODIPY labelled penicillin to 2.5 nM and unmodified PBP to 800 nM.
A control well lacking unmodified peptide was prepared with a final fluorescent BODIPY labelled penicillin concentration of 2.5 nM and a final concentration of unmodified PBP of 800 nM to a final volume of 25 μl in binding buffer. A second control well lacking unmodified peptide and unmodified PBP was prepared with a final fluorescent BODIPY labelled penicillin concentration of 2.5 nM to a final volume of 25 μl in binding buffer.
Fluorescence polarisation was measured every 5 minutes for a period of one hour at room temperature. The gain and focal height were optimised using the control well lacking unmodified peptide and unmodified PBP. Wells were excited at 485 nm, and emission detection was set at 520 nm.
Data were analysed in GraphPad software to derive values for the inhibition constant. Experiments were repeated at least three times.
A further fluorescence polarisation competition study was carried out using BCY12820 as a tracer and the results are shown in Table 3: […]

Sequences of proteins named here, by UniProt entry; tags and fusion partners are left off. Residues count along the entry.
UniProt P0AD68, 1-577: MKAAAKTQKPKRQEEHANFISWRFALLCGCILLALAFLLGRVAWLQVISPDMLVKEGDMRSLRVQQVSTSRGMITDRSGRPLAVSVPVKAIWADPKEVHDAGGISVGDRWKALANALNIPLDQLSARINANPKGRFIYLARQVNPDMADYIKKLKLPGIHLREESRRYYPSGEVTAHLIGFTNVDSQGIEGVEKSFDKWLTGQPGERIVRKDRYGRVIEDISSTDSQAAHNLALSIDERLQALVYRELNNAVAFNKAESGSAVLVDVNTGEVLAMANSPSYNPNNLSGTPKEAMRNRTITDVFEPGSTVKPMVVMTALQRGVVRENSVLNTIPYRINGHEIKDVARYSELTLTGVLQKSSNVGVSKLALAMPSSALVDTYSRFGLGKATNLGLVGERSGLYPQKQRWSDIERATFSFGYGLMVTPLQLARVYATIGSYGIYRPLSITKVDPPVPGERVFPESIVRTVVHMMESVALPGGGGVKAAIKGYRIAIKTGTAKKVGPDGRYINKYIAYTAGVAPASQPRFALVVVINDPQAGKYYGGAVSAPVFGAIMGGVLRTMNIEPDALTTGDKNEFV

For assay [2], the target named is T1, PBP3 (E. coli). Kind of assay: Fluorescence polarisation direct binding assay. Particulars: direct binding to PBP 3 (E. coli). The method, then:
Fluorescence polarisation was carried out using fluorescein-labelled peptides with unmodified PBP protein and measured using a PHERAstar FS by BMG Labtech fitted with a FP 485 520 520 optic module.
Fluorescent peptides at 10 mM in DMSO were diluted to 2.5 nM in binding buffer (10 mM HEPES, pH8, 300 mM NaCl, 2% glycerol). A two-fold dilution series of PBP protein was then prepared across 12 wells in binding buffer, with the highest concentration being 21 μM, and the lowest concentration being 17 nM.
10 μl diluted fluorescent peptide (2.5 nM) was added into 12 wells of a 384-Well NBS™ Low Volume Microplate (Fisher Scientific). 10 μl PBP dilution series was then added to the wells containing the fluorescent peptide, and 5 μl binding buffer was added to bring the total volume to 25 μl and the final concentration of peptide tracer to 1 nM. A control well lacking PBP protein was prepared with a final peptide concentration of 1 nM to a final volume of 25 μl in binding buffer. Fluorescence polarisation was measured every 5 minutes for a period of one hour at room temperature. The gain and focal height were optimised using the control well lacking protein. Wells were excited at 485 nm, and emission detection was set at 520 nm.
Data were analysed in GraphPad software to derive values for the dissociation constant. Experiments were repeated at least three times. […]
Background: Fluorescence polarisation rises when a labelled molecule tumbles more slowly, as on binding a larger partner.

pKd, pKi: −log10 of the molar value.

By pKi is commonly meant −log10 of the Ki, conventionally taken in molar units. A lower pKi goes with a large Ki. A word on the pKd: it is the negative decadic logarithm of the Kd, by convention in mol/L. The low end stands for a high Kd, the high end for a low Kd.

In turn, “[FI]-G-[Sar5]-A-(SEQ ID NO: 1)-A [BCY12820]” had a pKi in assay [1] of 8.30. In assay [2], the pKd was 8.30. With “A-(SEQ ID NO: 1)-A-[Sar6]-[KFI] [BCY12806]”, the pKd in assay [2] is 5.68.

The values above are taken from patent US20230106511A1, “PBP3 BINDING BICYCLIC PEPTIDE LIGANDS” (priority 2020, published 2023).
